Measured values reported in PubChem BioAssay AID1021 (Emory University Molecular Libraries Screening Center, 2008).
The list shows a part of the results, in another mix than the full data. Some tests of the compounds listed are not included; inactive here does not mean inactive elsewhere. Calls of active or inactive are those of the source.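 Rule for the calls: active = compounds that cut the binding signal by more than half at the single screening dose; inactive = the rest.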

Protein sequences, listed by entry. Tags and fused reporters are not part of them.
UniProt Q07820, whole entry: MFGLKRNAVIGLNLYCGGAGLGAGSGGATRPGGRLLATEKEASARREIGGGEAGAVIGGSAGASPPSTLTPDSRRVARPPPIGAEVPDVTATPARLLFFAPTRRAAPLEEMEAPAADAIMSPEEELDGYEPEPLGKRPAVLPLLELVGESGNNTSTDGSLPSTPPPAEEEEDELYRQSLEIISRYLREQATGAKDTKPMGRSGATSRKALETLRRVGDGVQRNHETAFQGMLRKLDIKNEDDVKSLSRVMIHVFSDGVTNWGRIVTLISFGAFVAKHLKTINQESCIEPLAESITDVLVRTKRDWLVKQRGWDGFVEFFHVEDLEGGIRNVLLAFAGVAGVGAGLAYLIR

target: Induced myeloid leukemia cell differentiation protein Mcl-1 (Homo sapiens) (UniProt Q07820); assay: disruptors of Mcl-1 and Bid BH3 peptide – biochemical, TR-FRET, 1536-well, primary screen (AID 1021); settings: TR-FRET Mcl-1/Bid-Dy647 peptide binding, at 21.7 µM, active compounds read high;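 note: His-tagged Mcl-1 with europium anti-His antibody binding Bid BH3 peptide; 0% = Mcl-1 plus peptide wells and 100% = peptide-only wells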

Compound	inhibition
O=C(NCC1(N2CCCCC2)CCCCC1)c1cc([N+](=O)[O-])ccc1Cl	inactive: -59.5%
CC(C)N1C(=O)CC2(CCN(CCOC(=O)C(O)(c3ccccc3)c3ccccc3)CC2)C1=O	inactive: -1.96%
CCN(CC)CC(C)C(C)OC(=O)C(O)(c1ccccc1)c1ccccc1 (stereo unspecified)	inactive: -24.1%
CN(C)C1CCCC1OC(=O)C(O)(c1ccccc1)c1ccccc1 (stereo unspecified)	inactive: 5.22%
Cc1ccccc1C(=O)NCC1(N2CCCCC2)CCCCC1	inactive: -20.6%
C=CCN1CCN(CCOC(=O)C(O)(c2ccccc2)c2ccccc2)CC1	inactive: 0.44%
CCN1CCCC(OC(=O)C2(O)c3ccccc3C=Cc3ccccc32)C1 (stereo unspecified)	inactive: -8.4%
COc1cccc(C(=O)NCC2(N3CCCCC3)CCCCC2)c1	inactive: -22.5%
O=C(OC1CN2CCC1CC2)C(CO)(c1ccccc1)c1ccccc1 (stereo unspecified)	inactive: -5.73%
COc1ccc(Br)c(C(=O)NCC2(N3CCCCC3)CCCCC2)c1	inactive: -2.7%
CN(C)c1cccc(C(=O)NCC2(N(C)C)CCCCC2)c1	inactive: -31.3%
